Measurements from patent US20150125904A1, “PROBE INCORPORATION MEDIATED BY ENZYMES” (Massachusetts Institute of Technology, priority 2012, published 2015).

System: rat neurons
Details: 100 nM dye after TCO2 ligation

**Q.** “Aminobenzyltetrazine Alexa Fluor 647 [Tz1-Alexa 647]” was tested. Which toxicity of labeling did it give?
**A.** Its toxicity of labeling is “minimal apparent toxicity”.
